# Antibody variant affinities, Ab-95 light chain, assay 2

Source: Engelhart et al. 2022 (doi:10.1038/s41597-022-01779-4), MIT Lincoln Laboratory and A-Alpha Bio; data file from the FLAb repository.

The target is the same throughout: PDVDLGDISGINAS, from the HR2 region of SARS-CoV-2 spike.

Parent: Ab-95, a human scFv built as VH, a 15-residue (Gly4Ser)3 linker, VL. Only the CDRs of the light chain vary.
VH: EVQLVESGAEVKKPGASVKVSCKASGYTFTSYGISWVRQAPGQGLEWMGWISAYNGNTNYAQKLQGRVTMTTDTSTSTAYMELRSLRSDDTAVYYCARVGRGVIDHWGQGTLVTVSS
VL: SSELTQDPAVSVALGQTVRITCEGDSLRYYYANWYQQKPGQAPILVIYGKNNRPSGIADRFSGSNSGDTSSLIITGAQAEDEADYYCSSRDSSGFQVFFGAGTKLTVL

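In library AAYL52, one, two or three CDR residues were substituted; doubles and triples were drawn at random. AlphaSeq pools MATa yeast showing the antibodies with MATalpha yeast showing the peptide. Pairs that bind mate more often; barcode pairs of the diploids are counted by sequencing. Read counts were normalised to the haploid input and turned into Kd by a linear fit to BCL2-family pairs of known affinity, for each replicate. There are three technical replicates.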

Changes read parent residue, position, new residue, counted from the first residue of the VL shown. Every variant below is changed at L27 of the VL (sequential numbering). Affinities are written as log10 Kd with Kd in nM; a lower number is a better binder. The mean shown is taken over the replicates in which the pair was detected. An entry "nd" has no value in the source: the pair was not observed among the diploids in any replicate. This suggests poor binding but is not conclusive. Nonspecific signal, from three strains lacking the peptide, appeared in 28% of pairings of library AAYL52, centred on 3.91 (5% of these signals below 2.90); values are not corrected for it. Also given: how often the same scFv was detected with the empty control strains. In this assay the parent's reference entry averaged 2.31; its copy inside this library read 2.25.

Variant L27T/R53H/R90P gave nd (0 of 3 replicates; controls 1 of 9). Variant E23C/L27I/P54E showed 3.31 (3 of 3 replicates; controls 2 of 9). For D25F/L27W/S55G, the assay gave 3.80 (3 of 3 replicates; controls 5 of 9). With L27V/R28V/Y29H the result was 5.04 (2 of 3 replicates; controls 2 of 9). Variant L27S/G49K/R53D gave 3.83 (3 of 3 replicates; controls 2 of 9). With L27P/F95N the result was 3.98 (3 of 3 replicates; controls 2 of 9). For L27Y/K50W/F95P, the assay gave 2.97 (1 of 3 replicates; controls 2 of 9). For L27Q/S89G/S93V, the assay gave nd (0 of 3 replicates; controls 1 of 9). Variant L27T/R90N/F98N showed nd (0 of 3 replicates; controls 0 of 9).

With G24V/L27R/N33L the result was 4.58 (1 of 3 replicates; controls 2 of 9). Variant L27R/R90T/D91H showed 4.53 (2 of 3 replicates; controls 4 of 9). With L27H/Y31W the result was 4.96 (1 of 3 replicates; controls 1 of 9). For L27T/S88A/V97S, the assay gave 3.73 (3 of 3 replicates; controls 3 of 9). For L27P/N52D/G94C, the assay gave 4.16 (2 of 3 replicates; controls 1 of 9). Variant L27K/S55A/G94L gave nd (0 of 3 replicates; controls 1 of 9). Variant E23F/L27H/G49Q showed 3.84 (1 of 3 replicates; controls 4 of 9). Variant S26V/L27C/V97A gave nd (0 of 3 replicates; controls 2 of 9). Variant L27N/G49C/R90A gave 3.68 (1 of 3 replicates; controls 1 of 9).

Variant L27Y gave 2.12 (3 of 3 replicates; controls 4 of 9). For G24W/L27E/N52M, the assay gave 2.49 (3 of 3 replicates; controls 2 of 9). Variant E23A/L27T/R53M gave 3.31 (3 of 3 replicates; controls 2 of 9). Variant L27R/K50W/N51A showed 4.22 (2 of 3 replicates; controls 4 of 9). For E23I/L27E/Y31W, the assay gave 1.77 (3 of 3 replicates; controls 2 of 9). Variant L27E/R28Q/S93L showed 2.57 (2 of 3 replicates; controls 0 of 9). Variant L27R/S55T showed 3.00 (3 of 3 replicates; controls 3 of 9). Variant L27M/K50I/N52A gave 1.60 (3 of 3 replicates; controls 3 of 9). With L27C/Y29N/Q96N the result was 2.56 (3 of 3 replicates; controls 5 of 9).

For L27T/F95L, the assay gave 3.55 (2 of 3 replicates; controls 0 of 9). Variant S26N/L27F/R53L showed 3.68 (1 of 3 replicates; controls 1 of 9). With L27Q/N52L the result was 3.47 (2 of 3 replicates; controls 3 of 9). Variant L27Y/N51K/V97H showed 4.13 (1 of 3 replicates; controls 2 of 9). Variant L27Q/N52S/Q96M showed 3.80 (2 of 3 replicates; controls 6 of 9). Variant L27A/N33W/S92K showed 3.94 (3 of 3 replicates; controls 0 of 9). Variant L27M/A32K gave 3.43 (3 of 3 replicates; controls 7 of 9). Variant E23D/L27I/Y31P gave 2.15 (3 of 3 replicates; controls 5 of 9). With L27H/G94R/F95A the result was 3.16 (3 of 3 replicates; controls 3 of 9).

For L27S/R28Y, the assay gave 3.28 (3 of 3 replicates; controls 2 of 9). For L27K/S93N/Q96I, the assay gave nd (0 of 3 replicates; controls 2 of 9). Variant L27G/N33C/K50S showed 4.12 (2 of 3 replicates; controls 5 of 9). Variant L27D/S88I/S92F showed nd (0 of 3 replicates; controls 4 of 9). For L27M/S89A, the assay gave 2.43 (3 of 3 replicates; controls 1 of 9). With L27M/P54M/S88C the result was 3.77 (3 of 3 replicates; controls 2 of 9). For S26D/L27R/A32T, the assay gave 2.65 (3 of 3 replicates; controls 3 of 9). Variant L27G/S89V/D91Q gave 3.81 (1 of 3 replicates; controls 1 of 9).

The last 7 entries again:

The variant L27K/S93N/Q96I gave nd (0 of 3 replicates; controls 2 of 9).
The variant L27G/N33C/K50S gave 4.12 (2 of 3 replicates; controls 5 of 9).
The variant L27D/S88I/S92F gave nd (0 of 3 replicates; controls 4 of 9).
The variant L27M/S89A gave 2.43 (3 of 3 replicates; controls 1 of 9).
The variant L27M/P54M/S88C gave 3.77 (3 of 3 replicates; controls 2 of 9).
The variant S26D/L27R/A32T gave 2.65 (3 of 3 replicates; controls 3 of 9).
The variant L27G/S89V/D91Q gave 3.81 (1 of 3 replicates; controls 1 of 9).